Measured values taken from patent publication US20040047835A1, “Combinatorial drug therapy using polymer drug conjugates” (priority 2002, published 2004).

Legend:
[1] = system: mice; conditions: single dose intravenous (iv) injection
[2] = conjugate versus free drug; cited from earlier work
[3] = in vivo; cited from earlier work

DTPA-paclitaxel
LD50 (50% lethal dose) [1]: about 110 mg/kg body weight

poly(L-glutamic acid)-paclitaxel [PG-TXL]
solubility [2]: increased water solubility
accumulation / distribution in the tumor [3]: increased accumulation in the tumor
